Test results published in US7862836B2, “Phosphorus binder for treatment of kidney disease” (Biolink Life Sciences, Inc., priority 2005, dated 2011).

Test: Solubility in water of cationic phosphate binders (Table 1)

Calcium Gluconate
Hydrophile?: Yes
